Measured values reported in US12630604B2, “Methods of making chimeric antigen receptor-expressing cells” (Novartis AG, priority 2018, dated 2026).

Columns and labels:
[1] = tested on: T cells; assay: T cell differentiation status by flow cytometry (CCR7/CD45RO), cytokine process; assay type: cell-based; details: purified T cells cultured with cytokine 24 hours, no CD3/CD28 stimulation
Method: The cells were immunophenotyped for T cell differentiation status and transduction of the CAR was assessed using flow cytometry. The cells were washed, viability dye was added followed by the antibody cocktail (Table 20), and the plates were incubated for 20 minutes at room temperature. After the incubation, the cells were washed twice and fixed prior to being analyzed on the BD fortessa.

[2] = tested on: T cells; assay: T cell culture with cytokines after αCD3/αCD28 bead activation (expansion, size, viability); assay type: cell-based; details: T cells activated with αCD3αCD28 beads at day 0 in presence of cytokine
Method: Previously frozen T cells were thawed and contacted with αCD3/αCD28 dynal beads (cell to bead ratio of 1 to 3) in the presence of indicated cytokines at day 0. From day 3, twice more T cell growth media (RPMI1640, 10% FBS, 2 mM L-glutamin, 100 μM non-essential amino acids, 1 mM sodium pyruvate, 10 mM Hepes, 55 μM β-mercaptoethanol, 10% FBS, and 100 U/ml of penicillin-streptomycin) was added to the plate with indicated cytokines (without cytokine, rhIL2 (501 U/ml, Novartis), IL6 (10 ng/ml, R&D systems), IL7 (10 ng/ml, Peprotech), IL15 (10 ng/ml, Peprotech), and IL21 (10 ng/ml, Peprotech)) at day 3, 5, 6, 9, 12, 15, and 18. Cells treated without cytokine, IL6, or IL21 were cultured until day 18 and cells treated with IL2, IL7, or IL15 were cultured until day 25.

## IL-2: cytokine, rhIL2
[1]
  maintenance of self-renewing / naïve T cells (CD45RO−CCR7+): maintained self-renewing T cells in vitro
[2]
  T cell expansion: enhanced T cell expansion
